Measurements as given in patent US20240065988A1, “COMBINED USE OF KETAMINE AND RETIGABINE (EZOGABINE) FOR THE TREATMENT OF PSYCHIATRIC DISORDERS” (Yeda Research and Development Co. Ltd., priority 2021, published 2024).

System: single cells from the ventral hippocampus (vHipp)
Assay: Single-cell RNA sequencing (scRNA-seq) of the ventral hippocampus after ketamine treatment; differential expression per cell type
Settings: of the 263 DEGs

## CNC1(c2ccccc2Cl)CCCCC1=O (racemic) [ketamine, (R,S)-ketamine]
  DEGs significantly dysregulated in more than 1 cluster: 31
